In US7662861B2 (IDEXX Laboratories, Inc., priority 2003, dated 2010):

Conditions: cats
[1] = single sub-cutaneous 40 mg/kg, 300 mg/ml in 10% propylene glycol in glycerol formal

In the case of Florfenicol butyrate [FFBut], the “peak / high serum concentrations of florfenicol” value [1] is reported as 4 to 5 µg/mL, the “period with serum florfenicol concentration above 1.0 ug/ml (the MIC)” value [1] is reported as 5 to 6 days and the “serum concentration course, florfenicol butyrate v. NUFLOR” value (subcutaneous 40 mg/kg each, butyrate 350 mg/ml) is reported as “higher compared to NUFLOR® for days 2-6”.
